# Species on record: Bos taurus
row,Ka,Compound
1,1 ×10⁶ /M,C=C(c1ccc2c(c1)c(CO)cn2C)c1ccc(OC)c(OC)c1OC
2,5.4 ×10⁴ /M,C=C(c1cc(OC)c(OC)c(OC)c1)c1ccc2c(c1)c(C=NN)cn2C
3,3.6 ×10⁵ /M,C=C(c1cc(OC)c(OC)c(OC)c1)c1ccc2c(c1)c(C=O)cn2C
4,8.6 ×10⁶ /M,C=C(c1cc(OC)c(OC)c(OC)c1)c1ccc2c(c1)c(C=NO)cn2C
5,5.4 ×10⁵ /M,C=C(c1ccc2c(c1)c(C=NO)cn2C)c1ccc(OC)c(OC)c1OC
6,< 1 ×10⁴ /M,C=C(c1ccc2c(c1)c(C=O)cn2C)c1ccc(OC)c(OC)c1OC
7,5.3 ×10⁴ /M,COc1ccc(C(=CC=O)c2ccc3c(c2)c(C=O)cn3C)c(OC)c1OC
8,< 1 ×10⁴ /M,COc1ccc(C(C)c2ccc3c(c2)c(C=NN)cn3C)c(OC)c1OC (centres undefined)
9,4 ×10⁶ /M,C=C(c1ccc2c(c1)c(C#N)cn2C)c1ccc(OC)c(OC)c1OC
10,7.6 ×10⁶ /M,C=C(c1ccc2c(ccn2C)c1)c1ccc(OC)c(OC)c1OC
11,2.6 ×10⁵ /M,COc1ccc(C(=O)c2ccc3c(c2)c(C=O)cn3C)c(OC)c1OC

# The next lines start with the compound.
row,Compound,Ka
1,COc1cc(C(=O)c2ccc3c(c2)c(C=O)cn3C)cc(OC)c1OC,3.1 ×10⁵ /M
2,C=C(c1cc(OC)c(OC)c(OC)c1)c1ccc2c(c1)c(CO)cn2C,< 1 ×10⁴ /M
3,C=C(c1cc(OC)c(OC)c(OC)c1)c1ccc2c(ccn2C)c1,3.8 ×10⁶ /M
4,C=C(c1cc(OC)c(OC)c(OC)c1)c1ccc2c(c1)c(C#N)cn2C,1.8 ×10⁷ /M
5,COc1cc(C(=CC=O)c2ccc3c(c2)c(C=O)cn3C)cc(OC)c1OC,2.4 ×10⁵ /M
6,COc1cc(C(=O)c2ccc3c(c2)c(C(=O)O)cn3C)cc(OC)c1OC,< 1 ×10⁴ /M
7,COc1ccc(C(C)c2ccc3c(ccn3C)c2)c(OC)c1OC (centres undefined),3.1 ×10⁵ /M
8,COc1cc(C(=O)c2ccc3c(ccn3C)c2)cc(OC)c1OC,2.16 ×10⁶ /M

# Reference: ChEMBL document CHEMBL2321691 (J Med Chem, 2013)
